{
  "sequences": {"note": "Chains of the proteins cited; added tags and fusions are not shown.", "UniProt P14842, whole entry": "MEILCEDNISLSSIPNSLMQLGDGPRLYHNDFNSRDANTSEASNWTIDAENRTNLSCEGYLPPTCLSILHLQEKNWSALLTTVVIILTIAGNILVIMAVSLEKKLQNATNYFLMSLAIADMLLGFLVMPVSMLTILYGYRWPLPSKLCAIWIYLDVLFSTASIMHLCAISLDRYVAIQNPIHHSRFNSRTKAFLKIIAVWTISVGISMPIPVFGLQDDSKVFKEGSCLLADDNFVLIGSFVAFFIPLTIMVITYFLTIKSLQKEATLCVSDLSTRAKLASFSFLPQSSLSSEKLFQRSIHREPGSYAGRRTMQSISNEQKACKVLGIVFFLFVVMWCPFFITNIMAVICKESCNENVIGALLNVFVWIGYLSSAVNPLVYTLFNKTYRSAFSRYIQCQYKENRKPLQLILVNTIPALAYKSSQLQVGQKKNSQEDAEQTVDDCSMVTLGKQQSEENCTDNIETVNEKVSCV"},
  "source": "ChEMBL document CHEMBL1145714",
  "about": "“Activity of Parthenolide at 5HT2A receptors” (J Nat Prod, 1997)",
  "molecular_target": "5-hydroxytryptamine receptor 2A (Rattus norvegicus, UniProt P14842)",
  "experiment": "Displacement of [3H]ketanserin from rat 5HT2A receptor expressed in mouse NIH3T3 cells",
  "format": "cell-based",
  "data": [
    {"smiles": "O=C(CCCN1CCC2(CC1)C(=O)NCN2c1ccccc1)c1ccc(F)cc1", "note": "[SPIPERONE]", "values": [
      {"measurement": "Ki", "result": 1, "unit": "nM"}
    ]}
  ]
}
